# Measured values taken from patent US9029356B2, “Substituted indazole derivatives active as kinase inhibitors” (Nerviano Medical Services S.R.L., priority 2007, dated 2015).
# The chains behind the UniProt entries cited, without tags or fusion partners.
# UniProt O14965, whole entry, species assumed: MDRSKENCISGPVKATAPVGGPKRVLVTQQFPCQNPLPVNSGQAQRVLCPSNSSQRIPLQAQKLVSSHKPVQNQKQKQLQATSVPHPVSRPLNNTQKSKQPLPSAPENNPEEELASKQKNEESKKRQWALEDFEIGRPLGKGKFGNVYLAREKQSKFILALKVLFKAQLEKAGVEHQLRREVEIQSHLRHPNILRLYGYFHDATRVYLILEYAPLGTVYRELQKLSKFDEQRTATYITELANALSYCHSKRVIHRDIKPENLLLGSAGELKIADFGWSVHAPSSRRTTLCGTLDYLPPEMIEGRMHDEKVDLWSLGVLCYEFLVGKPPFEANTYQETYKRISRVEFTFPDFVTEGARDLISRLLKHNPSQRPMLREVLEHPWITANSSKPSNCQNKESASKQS
# Target: Aurora-2 (Homo sapiens (Human), UniProt O14965)
# Test: Biochemical assay for inhibitors of Aurora-2 kinase activity
# Details: 2.5 nM enzyme, 10 microM ATP, 8 microM substrate; read-out: Aur2 IC50 (μM) Biochemical assay
structure (smiles),measurement,value
"CN1CCN(c2ccc(C(=O)Nc3n[nH]c4ccc(Cc5cc(F)cc(F)c5)cc34)c(NC3CCCCC3)c2)CC1 [Cpd 18, 2-Cyclohexylamino-N-[5-(3,5-difluoro-benzyl)-1H-indazol-3-yl]-4-(4-methyl-piperazin-1-yl)-benzamide]",IC50,3.23 µM
